The Human Domainome abundance scans (Beltran et al. 2025)
± gives the uncertainty stated by the source.

B1: X-ray repair cross-complementing protein 6, residues 558 to 609; numbered along this chain, P12956 (parent)
chain: EYSEEELKTHISKGTLGKFTVPMLKEACRAYGLKSGLKKQELLEALTKHFQD

Variants of: B1
Test: abundance fitness (aPCA) (normalised: wild type 0, dead -1); higher = more abundant; growth selection in yeast, the domain comes from the species named
Conditions: Homo sapiens

| Variant | abundance fitness |
| --- | --- |
| EYSEEELKLHISKGTLGKFTVPMLKEACRAYGLKSGLKKQELLEALTKHFQD [T9L] | -0.08 ± 0.042 |
| EYSEEELKMHISKGTLGKFTVPMLKEACRAYGLKSGLKKQELLEALTKHFQD [T9M] | -0.065 ± 0.052 |
| EYSEEELKIHISKGTLGKFTVPMLKEACRAYGLKSGLKKQELLEALTKHFQD [T9I] | -0.033 ± 0.039 |
| EYSEEELKGHISKGTLGKFTVPMLKEACRAYGLKSGLKKQELLEALTKHFQD [T9G] | -0.049 ± 0.04 |
| EYSEEELKQHISKGTLGKFTVPMLKEACRAYGLKSGLKKQELLEALTKHFQD [T9Q] | -0.062 ± 0.046 |
| EYSEEELKHHISKGTLGKFTVPMLKEACRAYGLKSGLKKQELLEALTKHFQD [T9H] | -0.106 ± 0.049 |
| EYSEEELKPHISKGTLGKFTVPMLKEACRAYGLKSGLKKQELLEALTKHFQD [T9P] | -0.746 ± 0.072 |
| EYSEEELKSHISKGTLGKFTVPMLKEACRAYGLKSGLKKQELLEALTKHFQD [T9S] | -0.03 ± 0.043 |
| EYSEEELKRHISKGTLGKFTVPMLKEACRAYGLKSGLKKQELLEALTKHFQD [T9R] | -0.042 ± 0.037 |
| EYSEEELKFHISKGTLGKFTVPMLKEACRAYGLKSGLKKQELLEALTKHFQD [T9F] | 0.029 ± 0.056 |
| EYSEEELKWHISKGTLGKFTVPMLKEACRAYGLKSGLKKQELLEALTKHFQD [T9W] | -0.159 ± 0.035 |
| EYSEEELKDHISKGTLGKFTVPMLKEACRAYGLKSGLKKQELLEALTKHFQD [T9D] | -0.01 ± 0.052 |
| EYSEEELKKHISKGTLGKFTVPMLKEACRAYGLKSGLKKQELLEALTKHFQD [T9K] | -0.044 ± 0.049 |
| EYSEEELKCHISKGTLGKFTVPMLKEACRAYGLKSGLKKQELLEALTKHFQD [T9C] | -0.091 ± 0.059 |
| EYSEEELKAHISKGTLGKFTVPMLKEACRAYGLKSGLKKQELLEALTKHFQD [T9A] | -0.074 ± 0.042 |
| EYSEEELKTHICKGTLGKFTVPMLKEACRAYGLKSGLKKQELLEALTKHFQD [S12C] | -0.113 ± 0.065 |
| EYSEEELKTHIVKGTLGKFTVPMLKEACRAYGLKSGLKKQELLEALTKHFQD [S12V] | -0.045 ± 0.038 |
| EYSEEELKTHIHKGTLGKFTVPMLKEACRAYGLKSGLKKQELLEALTKHFQD [S12H] | -0.028 ± 0.12 |
| EYSEEELKTHIKKGTLGKFTVPMLKEACRAYGLKSGLKKQELLEALTKHFQD [S12K] | 0.051 ± 0.083 |
| EYSEEELKTHIYKGTLGKFTVPMLKEACRAYGLKSGLKKQELLEALTKHFQD [S12Y] | -0.115 ± 0.098 |
| EYSEEELKTHIGKGTLGKFTVPMLKEACRAYGLKSGLKKQELLEALTKHFQD [S12G] | -0.112 ± 0.035 |
| EYSEEELKTHITKGTLGKFTVPMLKEACRAYGLKSGLKKQELLEALTKHFQD [S12T] | -0.04 ± 0.055 |
| EYSEEELKTHIFKGTLGKFTVPMLKEACRAYGLKSGLKKQELLEALTKHFQD [S12F] | -0.09 ± 0.083 |
| EYSEEELKTHILKGTLGKFTVPMLKEACRAYGLKSGLKKQELLEALTKHFQD [S12L] | -0.057 ± 0.058 |
| EYSEEELKTHIAKGTLGKFTVPMLKEACRAYGLKSGLKKQELLEALTKHFQD [S12A] | 0.023 ± 0.045 |

| Variant | abundance fitness |
| --- | --- |
| EYSEEELKTHIIKGTLGKFTVPMLKEACRAYGLKSGLKKQELLEALTKHFQD [S12I] | -0.275 ± 0.11 |
| EYSEEELKTHIEKGTLGKFTVPMLKEACRAYGLKSGLKKQELLEALTKHFQD [S12E] | 0.085 ± 0.044 |
| EYSEEELKTHIDKGTLGKFTVPMLKEACRAYGLKSGLKKQELLEALTKHFQD [S12D] | -0.029 ± 0.051 |
| EYSEEELKTHIRKGTLGKFTVPMLKEACRAYGLKSGLKKQELLEALTKHFQD [S12R] | -0.036 ± 0.047 |
| EYSEEELKTHIPKGTLGKFTVPMLKEACRAYGLKSGLKKQELLEALTKHFQD [S12P] | -0.674 ± 0.061 |
| EYSEEELDTHISKGTLGKFTVPMLKEACRAYGLKSGLKKQELLEALTKHFQD [K8D] | -0.539 ± 0.044 |
| EYSEEELATHISKGTLGKFTVPMLKEACRAYGLKSGLKKQELLEALTKHFQD [K8A] | -0.151 ± 0.044 |
| EYSEEELHTHISKGTLGKFTVPMLKEACRAYGLKSGLKKQELLEALTKHFQD [K8H] | -0.386 ± 0.059 |
| EYSEEELCTHISKGTLGKFTVPMLKEACRAYGLKSGLKKQELLEALTKHFQD [K8C] | -0.057 ± 0.045 |
| EYSEEELFTHISKGTLGKFTVPMLKEACRAYGLKSGLKKQELLEALTKHFQD [K8F] | -0.172 ± 0.051 |
| EYSEEELTTHISKGTLGKFTVPMLKEACRAYGLKSGLKKQELLEALTKHFQD [K8T] | -0.191 ± 0.048 |
| EYSEEELVTHISKGTLGKFTVPMLKEACRAYGLKSGLKKQELLEALTKHFQD [K8V] | -0.072 ± 0.044 |
| EYSEEELITHISKGTLGKFTVPMLKEACRAYGLKSGLKKQELLEALTKHFQD [K8I] | -0.055 ± 0.074 |
| EYSEEELMTHISKGTLGKFTVPMLKEACRAYGLKSGLKKQELLEALTKHFQD [K8M] | -0.046 ± 0.047 |
| EYSEEELRTHISKGTLGKFTVPMLKEACRAYGLKSGLKKQELLEALTKHFQD [K8R] | -0.016 ± 0.041 |
| EYSEEELNTHISKGTLGKFTVPMLKEACRAYGLKSGLKKQELLEALTKHFQD [K8N] | -0.398 ± 0.076 |
| EYSEEELGTHISKGTLGKFTVPMLKEACRAYGLKSGLKKQELLEALTKHFQD [K8G] | -0.326 ± 0.037 |
| EYSEEELSTHISKGTLGKFTVPMLKEACRAYGLKSGLKKQELLEALTKHFQD [K8S] | -0.188 ± 0.034 |
| EYSEEELQTHISKGTLGKFTVPMLKEACRAYGLKSGLKKQELLEALTKHFQD [K8Q] | -0.048 ± 0.053 |
| EYSEEELETHISKGTLGKFTVPMLKEACRAYGLKSGLKKQELLEALTKHFQD [K8E] | -0.199 ± 0.059 |
| EYSEEELPTHISKGTLGKFTVPMLKEACRAYGLKSGLKKQELLEALTKHFQD [K8P] | -0.802 ± 0.077 |
| EYSEEELLTHISKGTLGKFTVPMLKEACRAYGLKSGLKKQELLEALTKHFQD [K8L] | 0.002 ± 0.034 |
| EYSEEELKTHISIGTLGKFTVPMLKEACRAYGLKSGLKKQELLEALTKHFQD [K13I] | -0.284 ± 0.11 |
| EYSEEELKTHISHGTLGKFTVPMLKEACRAYGLKSGLKKQELLEALTKHFQD [K13H] | -0.053 ± 0.11 |
| EYSEEELKTHISEGTLGKFTVPMLKEACRAYGLKSGLKKQELLEALTKHFQD [K13E] | 0.031 ± 0.042 |
